From patent publication US20240108766A1 (Bayer, published 2024)
Positions count from the first letter of the chain named. One block for each binder: values may come before it.

Columns and labels:
[1] = molecular target: T1, human LRRC15 extracellular domain with C-terminal His tag (human, UniProt Q8TF66 22-538); experiment: SPR Biacore T200, antibody captured, LRRC15 analyte, 10°C
T1 construct: Recombinant, made in HEK293; the entry holds the extracellular domain and the His tag; SPR analyte; also called TPP-1545; hLRRC15 CT-His
T1 sequence: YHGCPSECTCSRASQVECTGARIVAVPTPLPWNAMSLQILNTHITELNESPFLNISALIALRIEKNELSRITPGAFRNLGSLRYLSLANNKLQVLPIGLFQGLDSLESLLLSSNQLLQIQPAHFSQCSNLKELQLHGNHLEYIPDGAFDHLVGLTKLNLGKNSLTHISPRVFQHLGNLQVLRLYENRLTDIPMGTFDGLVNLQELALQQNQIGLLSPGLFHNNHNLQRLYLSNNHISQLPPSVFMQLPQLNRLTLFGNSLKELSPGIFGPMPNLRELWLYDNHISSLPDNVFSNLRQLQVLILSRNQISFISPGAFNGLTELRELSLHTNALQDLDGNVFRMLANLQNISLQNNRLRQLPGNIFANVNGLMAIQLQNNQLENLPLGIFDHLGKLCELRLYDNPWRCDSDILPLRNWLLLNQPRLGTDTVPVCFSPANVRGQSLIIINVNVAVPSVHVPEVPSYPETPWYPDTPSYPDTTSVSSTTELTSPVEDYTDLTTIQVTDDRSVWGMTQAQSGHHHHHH
Protocol: (§1) To assess if anti-LRRC-15 antibodies show a difference in binding at different temperatures, binding assays were conducted using surface plasmon resonance (SPR). Binding assays were performed on a Biacore T200 instrument at temperatures of 10° C., 20° C., 25° C. and 37° C. with assay buffer HBS EP+, 1 mg/ml BSA (bovine serum albumine), 300 mM NaCl, 0.05% NaN₃. Antibodies were captured via anti-human Fc IgGs covalently amine coupled to a CM5 sensor chip and human LRRC15 was used as an analyte in a concentration series from 1.56-200 nM in multi cycle kinetics mode. Pre-experiments were conducted to have an equal capture level at each temperature. Obtained sensorgrams were fitted to a 1:1 Langmuir binding model to derive kinetic data.

[2] = molecular target: T2, murine LRRC15 extracellular domain with C-terminal His tag (mouse, UniProt Q80X72 22-536); experiment: SPR (Example 6), overview table, repeats Table 9; head prints [M^-1]
T2 construct: Recombinant, made in HEK293; the entry holds the extracellular domain and the His tag; SPR analyte; also called TPP-9045
Protocol: (§2) To assess the binding kinetics and affinity of anti-LRRC15 antibodies as well as their species cross-reactivity profile, binding assays were conducted using surface plasmon resonance (SPR). Binding assays were performed on a Biacore T200 instrument at 25° C. using assay buffer HBS EP+, 1 mg/ml BSA, 300 mM NaCl, 0.05% NaN3. Antibodies were captured via anti-human Fc IgGs covalently amine coupled to a CM5 sensor chip and human, mouse and cynomolgus LRRC15 were used as analytes in a concentration series from 1.56-200 nM in multi cycle kinetics mode. To obtain reliable dissociation rate constants (kd) the dissociation rate was prolonged from 2.000 seconds to 12.000 seconds for two concentrations of antigen injection (25 nM and 200 nM). Obtained sensorgrams were fitted to a 1:1 Langmuir binding model to derive kinetic data.

[3] = molecular target: T1, human LRRC15 extracellular domain with …; experiment: SPR (Example 3), 10°C; kd as listed in Table 6
Protocol: as §1

[4] = molecular target: T1, human LRRC15 extracellular domain with …; experiment: SPR (Example 3), 20°C; kd as listed in Table 6
Protocol: as §1

[5] = molecular target: T1, human LRRC15 extracellular domain with …; experiment: SPR Biacore T200, antibody captured, LRRC15 analyte, 20°C
Protocol: as §1

[6] = molecular target: T1, human LRRC15 extracellular domain with …; experiment: SPR (Example 3), 25°C; kd as listed in Table 6
Protocol: as §1

[7] = molecular target: T1, human LRRC15 extracellular domain with …; experiment: SPR (Example 3), 37°C; kd as listed in Table 6
Protocol: as §1

[8] = molecular target: T1, human LRRC15 extracellular domain with …; experiment: SPR Biacore T200, antibody captured, LRRC15 analyte, 37°C
Protocol: as §1

[9] = molecular target: T1, human LRRC15 extracellular domain with …; experiment: SPR Biacore T200, antibody captured, LRRC15 analyte, 25°C
Protocol: as §1

[10] = molecular target: T1, human LRRC15 extracellular domain with …; experiment: SPR Biacore T200, 25°C, antibody captured, LRRC15 analyte
Protocol: as §2

[11] = molecular target: T3, cynomolgus (Macaca fascicularis) LRRC15 extracellular domain with C-terminal His tag (cynomolgus monkey (Macaca fascicularis), UniProt Q8TF66 22-538 (human entry)); experiment: as above
T3 construct: Recombinant, made in HEK293; the entry holds the extracellular domain and the His tag; SPR analyte; also called TPP-9046
T3 chain: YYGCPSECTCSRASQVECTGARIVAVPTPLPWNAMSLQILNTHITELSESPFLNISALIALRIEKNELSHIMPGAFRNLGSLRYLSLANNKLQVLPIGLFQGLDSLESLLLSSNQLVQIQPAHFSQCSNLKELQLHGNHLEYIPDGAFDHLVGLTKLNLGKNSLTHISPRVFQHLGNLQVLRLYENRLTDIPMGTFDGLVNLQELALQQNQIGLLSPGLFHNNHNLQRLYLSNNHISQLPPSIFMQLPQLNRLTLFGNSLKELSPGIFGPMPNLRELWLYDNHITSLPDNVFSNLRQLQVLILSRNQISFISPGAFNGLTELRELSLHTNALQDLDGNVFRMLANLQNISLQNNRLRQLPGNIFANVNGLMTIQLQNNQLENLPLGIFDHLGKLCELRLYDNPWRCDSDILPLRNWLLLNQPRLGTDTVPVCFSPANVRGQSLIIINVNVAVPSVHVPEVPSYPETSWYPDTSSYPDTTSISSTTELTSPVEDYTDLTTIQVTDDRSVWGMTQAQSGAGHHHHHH
Protocol: as §2

[12] = molecular target: T2, murine LRRC15 extracellular domain with …; experiment: as above
Protocol: as §2

B1: TPP-17078 (antibody, human IgG1, kappa, V domains shown)
VH: EVQLVQSGAEVKKPGASVKVSCKASGYKFSSYWIEWVKQAPGQGLEWIGEILPGSDTTNYNEKFKDRATFTSDTSINTAYMELSRLRSDDTAVYYCARDRGNYRAWFGYWGQGTLVTVSS
VL: DIQMTQSPSSLSASVGDRVTITCRASQSISSYLNWYQQKPGGAPKFLIYYASSLQSGVPSRFSGSGSGTDYTLTISSLQPEDFATYYCQQGFSLPWTFGGGTKVEIKR
notes: also called 438H-M308-H05-hIgGkappa
koff [1]: 1.3e-05 s⁻¹ | kon [1]: 40000 M⁻¹ s⁻¹ | Kd [2]: 2.9 nM | koff [3]: 1.3e-05 s⁻¹ | koff [4]: 4.6e-05 s⁻¹ | koff [5]: 4.6e-05 s⁻¹ | kon [5]: 52000 M⁻¹ s⁻¹ | koff [6]: 9.1e-05 s⁻¹ | koff [7]: 0.00066 s⁻¹ | koff [8]: 0.00066 s⁻¹ | kon [8]: 67000 M⁻¹ s⁻¹ | koff [9]: 9.1e-05 s⁻¹ | kon [9]: 58000 M⁻¹ s⁻¹ | koff [10]: 8.1e-05 s⁻¹ | kon [10]: 47000 M⁻¹ s⁻¹ | koff [11]: 0.00011 s⁻¹ | kon [11]: 59000 M⁻¹ s⁻¹ | Kd [12]: 2.9 nM | koff [12]: 0.00012 s⁻¹ | kon [12]: 42000 M⁻¹ s⁻¹

B3: TPP-17421 (antibody, human IgG1, kappa, V domains shown)
VH: B1 VH with T57W, G108Q
VL: B1 VL with F92L, S93E
notes: also called 438H-M306-C11-hIgG1Kappa
koff [1]: 2e-05 s⁻¹ | kon [1]: 42000 M⁻¹ s⁻¹ | Kd [2]: 1.6 nM | koff [3]: 2e-05 s⁻¹ | koff [4]: 4.3e-05 s⁻¹ | koff [5]: 4.3e-05 s⁻¹ | kon [5]: 52000 M⁻¹ s⁻¹ | koff [6]: 5.3e-05 s⁻¹ | koff [7]: 0.00018 s⁻¹ | koff [8]: 0.00018 s⁻¹ | kon [8]: 76000 M⁻¹ s⁻¹ | koff [9]: 5.3e-05 s⁻¹ | kon [9]: 60000 M⁻¹ s⁻¹ | koff [10]: 3.7e-05 s⁻¹ | kon [10]: 39000 M⁻¹ s⁻¹ | koff [11]: 4.2e-05 s⁻¹ | kon [11]: 46000 M⁻¹ s⁻¹ | Kd [12]: 1.6 nM | koff [12]: 4.5e-05 s⁻¹ | kon [12]: 29000 M⁻¹ s⁻¹

B4: TPP-17405 (antibody, human IgG1, kappa, V domains shown)
VH: B1 VH with G108Q
VL: B1 VL with S28R, Q89D, F92L, S93E
notes: also called 438H-M345-F05-hIgG1Kappa
Kd [2]: 2.7 nM | koff [10]: 6.1e-05 s⁻¹ | kon [10]: 72000 M⁻¹ s⁻¹ | koff [11]: 6.9e-05 s⁻¹ | kon [11]: 88000 M⁻¹ s⁻¹ | Kd [12]: 2.7 nM | koff [12]: 0.00011 s⁻¹ | kon [12]: 42000 M⁻¹ s⁻¹

B6: TPP-17073 (antibody, human IgG1, kappa, V domains shown)
VH: EVQLLESGGGLVQPGGSLRLSCAASGFTFSGYMMSWVRQAPGKGLEWVSGIYPSAGYTLYADSVKGRFTISRDNSKNTLYLQMNSLRAEDTAVYYCAREKAADLFGSYSEALDYWGQGTLVTVSS
VL: DIQMTQSPDSLSASVGDRVTITCRASQDVGSWLAWYQQKPGKAPKLLIFAASYLESGIPSRFSGSGSGTDFTLTISSLQPEDFATYYCQQANGFPLTFGGGTKVEIKR
notes: Variant of TPP-1633, human IgG1; also called 438H-M113-N15-hIgG1
Kd [2]: 2.5 nM | koff [10]: 9.1e-05 s⁻¹ | kon [10]: 440000 M⁻¹ s⁻¹ | koff [11]: 0.00011 s⁻¹ | kon [11]: 600000 M⁻¹ s⁻¹ | Kd [12]: 2.5 nM | koff [12]: 0.00024 s⁻¹ | kon [12]: 97000 M⁻¹ s⁻¹

B7: TPP-14392 (antibody, human IgG1, kappa, V domains shown)
VH: B6 VH with A55P, L59Y, A102S, F105S
VL: B6 VL
notes: Variant of TPP-1633, human IgG1 kappa; also called 13612-rec05-hIgG1Kappa
Kd [1]: 1.6 nM | koff [1]: 6e-05 s⁻¹ | kon [1]: 37000 M⁻¹ s⁻¹ | Kd [2]: 7.5 nM | koff [3]: 6e-05 s⁻¹ | koff [4]: 0.00013 s⁻¹ | koff [5]: 0.00013 s⁻¹ | kon [5]: 45000 M⁻¹ s⁻¹ | koff [6]: 0.00034 s⁻¹ | koff [7]: 0.005 s⁻¹ | koff [8]: 0.005 s⁻¹ | kon [8]: 55000 M⁻¹ s⁻¹ | koff [9]: 0.00034 s⁻¹ | kon [9]: 50000 M⁻¹ s⁻¹ | koff [10]: 0.00021 s⁻¹ | kon [10]: 37000 M⁻¹ s⁻¹ | koff [11]: 0.0004 s⁻¹ | kon [11]: 39000 M⁻¹ s⁻¹ | Kd [12]: 7.5 nM | koff [12]: 0.0012 s⁻¹ | kon [12]: 160000 M⁻¹ s⁻¹

Continued by falling Kd [2], values first:

koff [1]: 0.00012 s⁻¹ | kon [1]: 190000 M⁻¹ s⁻¹ | Kd [2]: 52 nM | koff [3]: 0.00012 s⁻¹ | koff [4]: 0.00047 s⁻¹ | koff [5]: 0.00047 s⁻¹ | kon [5]: 230000 M⁻¹ s⁻¹ | koff [6]: 0.0013 s⁻¹ | koff [7]: 0.019 s⁻¹ | koff [8]: 0.019 s⁻¹ | kon [8]: 300000 M⁻¹ s⁻¹ | koff [9]: 0.0013 s⁻¹ | kon [9]: 240000 M⁻¹ s⁻¹ | koff [10]: 0.0019 s⁻¹ | kon [10]: 320000 M⁻¹ s⁻¹ | koff [11]: 0.0016 s⁻¹ | kon [11]: 180000 M⁻¹ s⁻¹ | Kd [12]: 52 nM | koff [12]: 0.0019 s⁻¹ | kon [12]: 37000 M⁻¹ s⁻¹
B8: TPP-14389 (antibody, human IgG1, kappa, V domains shown)
VH: B6 VH with A55P, L59Y, A102S
VL: B6 VL with Y53S
notes: Variant of TPP-1633, human IgG1 kappa; also called 13612-rec02-hIgG1Kappa

Kd [2]: 2.3 nM | koff [10]: 7.6e-05 s⁻¹ | kon [10]: 22000 M⁻¹ s⁻¹ | koff [11]: 0.00011 s⁻¹ | kon [11]: 44000 M⁻¹ s⁻¹ | Kd [12]: 2.3 nM | koff [12]: 5.6e-05 s⁻¹ | kon [12]: 24000 M⁻¹ s⁻¹
B5: TPP-17419 (antibody, human IgG1, kappa, V domains shown)
VH: B1 VH with T57W, G108Q
VL: B1 VL with A25I, F92L, S93R
notes: also called 438H-M307-H07-hIgG1Kappa

Kd [2]: 0.89 nM | koff [10]: 3.5e-05 s⁻¹ | kon [10]: 33000 M⁻¹ s⁻¹ | koff [11]: 3.9e-05 s⁻¹ | kon [11]: 39000 M⁻¹ s⁻¹ | Kd [12]: 0.89 nM | koff [12]: 2.6e-05 s⁻¹ | kon [12]: 29000 M⁻¹ s⁻¹
B2: TPP-17418 (antibody, human IgG1, kappa, V domains shown)
VH: B1 VH with T57W, G108Q
VL: B1 VL
notes: also called 438H-M308-H05_B-hIgG1Kappa
